Structures are written as SMILES. Only a part is listed here, and it is no random draw. Some tests of the compounds listed are not included; inactive here does not mean inactive elsewhere. Calls of active or inactive are those of the source.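 Rule for the calls: active = compounds whose inhibition of the agonist-driven luminescence signal at 20 µM reaches about 50% (limit read from the data); inactive = the rest.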

Amino acid sequences for entries named in this document (tags omitted).
UniProt P51684, whole entry: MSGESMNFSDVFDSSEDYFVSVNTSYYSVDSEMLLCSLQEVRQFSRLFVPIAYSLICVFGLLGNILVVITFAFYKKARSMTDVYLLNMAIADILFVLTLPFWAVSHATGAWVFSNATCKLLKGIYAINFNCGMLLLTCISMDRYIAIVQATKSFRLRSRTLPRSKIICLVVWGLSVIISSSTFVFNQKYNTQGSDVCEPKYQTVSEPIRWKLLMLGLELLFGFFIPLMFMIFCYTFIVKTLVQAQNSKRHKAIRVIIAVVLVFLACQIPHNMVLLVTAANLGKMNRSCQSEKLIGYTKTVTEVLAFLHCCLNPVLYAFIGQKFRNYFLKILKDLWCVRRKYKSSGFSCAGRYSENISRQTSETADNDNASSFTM

This test addresses C-C chemokine receptor type 6 (Homo sapiens) (UniProt P51684). Kind of test: blockers of CCL20-driven beta-arrestin recruitment to CCR6 – cell-based, CHO-K1, luminescence, uHTS, primary screen (AID 493098).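 Note: cells stimulated with CCL20 at 14 nM final; plate controls were DMSO with CCL20 for no effect and DMSO without agonist for full effect.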 The settings on record: CHO-K1 CCR6 PathHunter beta-arrestin, CCL20-stimulated, at 20 µM, active compounds read high. (In general: Recruitment of arrestin is a read-out of receptor activation apart from second messengers.)
For the molecule `COc1cc(C(=O)NCC2(N(C)C)CCCCC2)c([N+](=O)[O-])cc1OC`, the inhibition (commonly the change of the read-out against control, counted positive when it falls) is inactive: -0.51%. The figure for `CN(C)C1(CNC(=O)c2ccc(Br)cc2)CCCCC1` is inactive: 16%; for `O=C(NCC1(N2CCCCC2)CCCCC1)c1cccc(Cl)c1` it is inactive: 3.55%.

Turning to `COc1cccc(C(=O)NCC2(N3CCCCC3)CCCCC2)c1`, the inhibition is inactive: 1.38%. Consider `COc1ccc(Cl)cc1C(=O)NCC1(N(C)C)CCCCC1`, for which the inhibition is inactive: 8.81%. To `O=C(OC1CN2CCC1CC2)C(CO)(c1ccccc1)c1ccccc1` (stereo not given) belongs inactive: -4.65%; to `CN(C)c1cccc(C(=O)NCC2(N(C)C)CCCCC2)c1`, inactive: 3.61%. In the case of `CC(C)Oc1ccc(C(=O)NCC2(N(C)C)CCCCC2)cc1`, the inhibition was inactive: 15.1%. The figure for `O=C(OCCN1CCCC1)C(O)(c1ccccc1)c1ccccc1` is inactive: 4.39%; for `COc1ccc(Br)c(C(=O)NCC2(N3CCCCC3)CCCCC2)c1` it is inactive: 16.2%. The figure for `CN1[C@@H]2CC[C@H]1CC(OC(=O)C(O)(c1ccccc1)c1ccccc1)C2` (stereo not given in full) is inactive: 6.96%; for `O=C(NCC1(N2CCCCC2)CCCCC1)c1cc([N+](=O)[O-])ccc1Cl` it is inactive: 7.75%; for `Cc1ccc(C(=O)NCC2(N3CCCCC3)CCCCC2)cc1` it is inactive: 17.2%. The figure for `CC(C)N1C(=O)CC2(CCN(CCOC(=O)C(O)(c3ccccc3)c3ccccc3)CC2)C1=O` is inactive: 15.2%; for `CCN(CC)CC(C)C(C)OC(=O)C(O)(c1ccccc1)c1ccccc1` (stereo not given) it is inactive: 11.5%. In the case of `COc1cc(SC)ccc1C(=O)NCC1(N(C)C)CCCCC1`, the inhibition is inactive: 5.69%. To `Cc1ccccc1C(=O)NCC1(N2CCCCC2)CCCCC1` belongs inactive: 8.25%; to `CN(C)C1CCCC1OC(=O)C(O)(c1ccccc1)c1ccccc1` (stereo not given), inactive: -12.6%; to `CN(C)c1ccc(C(=O)NCC2(N(C)C)CCCCC2)cc1`, inactive: 2.31%. The figure for `Cc1cc(C(=O)NCC2(N3CCCCC3)CCCCC2)ccc1[N+](=O)[O-]` is inactive: 11.7%; for `CCN1CCCC(OC(=O)C2(O)c3ccccc3C=Cc3ccccc32)C1` (stereo not given) it is inactive: -0.5%; for `O=C(NCC1(N2CCCCC2)CCCCC1)c1cccc(Br)c1` it is inactive: 13.6%. The figure for `COc1ccc(C(=O)NCC2(N(C)C)CCCCC2)cc1` is inactive: 8.4%.

For the molecule `C=CCN1CCN(CCOC(=O)C(O)(c2ccccc2)c2ccccc2)CC1`, the inhibition was inactive: 5.07%.

For the molecule `O=C(NCC1(N2CCCCC2)CCCCC1)c1cc(F)c(F)cc1Cl`, the inhibition is inactive: 9.53%.

For the origin of these results see PubChem BioAssay AID493098 (Sanford-Burnham Center for Chemical Genomics, 2011).
